Assays:
hCB1R [1] = biological target: T1, hCB1R (Homo sapiens, UniProt P21554)
hCB1R [2] = biological target: T1, hCB1R; remark: listed apart in the source
hCB1R [3] = biological target: T1, hCB1R; remark: listed apart in the source
hCB1R [4] = biological target: T1, hCB1R; remark: listed apart in the source
Rat recombinant TRPA1 = Rat recombinant TRPA1 (Rattus norvegicus, UniProt Q6RI86); assay: cell-based
mCB2R = mCB2R (Mus musculus, UniProt P47936); type: binding; conditions: mouse spleen membranes

The chains behind the UniProt entries cited, without tags or fusion partners. Where a name states a change or a piece, a line headed by the entry shows the natural chain unless it says otherwise.
UniProt P21554, whole entry: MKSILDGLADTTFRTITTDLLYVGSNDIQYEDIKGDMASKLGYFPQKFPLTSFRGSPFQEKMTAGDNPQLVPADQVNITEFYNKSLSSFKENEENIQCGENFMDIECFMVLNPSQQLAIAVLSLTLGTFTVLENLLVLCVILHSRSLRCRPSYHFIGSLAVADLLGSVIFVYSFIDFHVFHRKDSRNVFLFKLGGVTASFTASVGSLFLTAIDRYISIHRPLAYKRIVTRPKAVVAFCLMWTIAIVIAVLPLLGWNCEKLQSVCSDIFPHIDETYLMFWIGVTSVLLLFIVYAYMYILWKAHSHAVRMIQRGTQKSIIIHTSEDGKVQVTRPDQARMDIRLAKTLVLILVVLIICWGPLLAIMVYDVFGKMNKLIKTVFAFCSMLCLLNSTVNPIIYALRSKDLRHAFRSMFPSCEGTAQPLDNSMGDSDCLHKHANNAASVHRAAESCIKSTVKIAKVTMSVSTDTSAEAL
UniProt Q6RI86, whole entry: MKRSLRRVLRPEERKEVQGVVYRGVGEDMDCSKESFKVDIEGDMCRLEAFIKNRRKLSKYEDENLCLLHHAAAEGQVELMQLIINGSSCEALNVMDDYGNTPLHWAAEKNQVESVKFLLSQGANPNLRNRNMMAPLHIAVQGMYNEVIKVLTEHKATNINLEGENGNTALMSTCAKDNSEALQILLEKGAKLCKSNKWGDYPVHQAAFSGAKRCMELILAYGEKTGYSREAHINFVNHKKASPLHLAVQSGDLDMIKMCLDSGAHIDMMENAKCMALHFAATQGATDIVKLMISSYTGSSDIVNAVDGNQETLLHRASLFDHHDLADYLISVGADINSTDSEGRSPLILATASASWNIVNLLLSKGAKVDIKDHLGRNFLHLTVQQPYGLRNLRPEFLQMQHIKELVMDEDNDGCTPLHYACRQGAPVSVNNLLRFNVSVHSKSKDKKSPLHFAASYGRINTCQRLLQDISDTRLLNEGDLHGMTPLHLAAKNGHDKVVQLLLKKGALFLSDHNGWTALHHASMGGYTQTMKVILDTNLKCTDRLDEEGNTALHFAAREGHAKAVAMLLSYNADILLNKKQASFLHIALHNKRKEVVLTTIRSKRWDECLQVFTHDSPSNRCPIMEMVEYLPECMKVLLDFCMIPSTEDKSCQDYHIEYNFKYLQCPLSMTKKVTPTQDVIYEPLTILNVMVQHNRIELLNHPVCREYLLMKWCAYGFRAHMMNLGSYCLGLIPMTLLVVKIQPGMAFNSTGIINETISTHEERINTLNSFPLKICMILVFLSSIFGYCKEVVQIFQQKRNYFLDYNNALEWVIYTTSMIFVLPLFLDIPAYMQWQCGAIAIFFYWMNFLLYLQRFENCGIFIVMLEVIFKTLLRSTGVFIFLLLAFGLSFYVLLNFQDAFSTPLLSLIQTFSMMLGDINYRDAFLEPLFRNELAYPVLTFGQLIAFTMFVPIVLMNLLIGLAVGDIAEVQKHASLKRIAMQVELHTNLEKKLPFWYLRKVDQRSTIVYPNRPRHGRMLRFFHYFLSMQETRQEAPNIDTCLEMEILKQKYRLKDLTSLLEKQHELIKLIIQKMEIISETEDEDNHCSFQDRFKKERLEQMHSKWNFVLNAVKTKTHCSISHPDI
UniProt P47936: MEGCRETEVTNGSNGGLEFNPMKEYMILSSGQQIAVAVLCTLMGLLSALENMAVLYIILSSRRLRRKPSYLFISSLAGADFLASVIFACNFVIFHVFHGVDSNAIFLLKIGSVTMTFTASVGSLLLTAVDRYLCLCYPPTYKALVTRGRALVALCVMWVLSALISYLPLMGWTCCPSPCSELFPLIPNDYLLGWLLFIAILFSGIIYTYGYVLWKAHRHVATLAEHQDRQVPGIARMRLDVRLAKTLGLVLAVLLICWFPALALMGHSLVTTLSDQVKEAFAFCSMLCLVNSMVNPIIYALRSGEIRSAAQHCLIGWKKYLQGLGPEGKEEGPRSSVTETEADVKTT

Cc1c(C(=O)NN2CCCCC2)nn(-c2ccc(Cl)cc2Cl)c1-c1ccc(I)cc1 [AM251]
Emax ± SEM pERK hCB1R (hCB1R [1]): -116 ± 10 | Emax ± SEM GTPγS hCB1R (hCB1R [2]): -25 ± 5 | Emax ± SEM cAMP hCB1R (hCB1R [3]): -124 ± 9 | Emax ± SEM β-AR recruitment hCB1R (hCB1R [4]): -105 ± 1

C=CCN=C=S [allyl isothiocyanate]
EC50 (Rat recombinant TRPA1): 1410 ± 40 nM

SR144528
pKi ± SEM mCB2R (mCB2R): 10.7 ± 0.16
